# Ab-14 heavy chain CDR variants: yeast mating affinities

The measurements come from Engelhart et al. 2022 (doi:10.1038/s41597-022-01779-4) through the FLAb antibody collection.

All variants were tested on one target, the spike HR2 peptide PDVDLGDISGINAS (SARS-CoV-2).

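Library AAYL49 holds single substitutions and randomly drawn double and triple substitutions in the CDRs. In AlphaSeq, yeast of one mating type display the scFv and yeast of the other type display the target. Pairs that bind mate more often; barcode pairs of the diploids are counted by sequencing. A regression on co-assayed BCL2-family reference pairs converts the normalised counts of each replicate to an apparent Kd. Each pool was mated in three replicate cultures.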

Each scFv is VH, a (GGGGS)3 linker, VL, as in the parent Ab-14, and differs from it in the CDRs of the heavy chain only.
VH: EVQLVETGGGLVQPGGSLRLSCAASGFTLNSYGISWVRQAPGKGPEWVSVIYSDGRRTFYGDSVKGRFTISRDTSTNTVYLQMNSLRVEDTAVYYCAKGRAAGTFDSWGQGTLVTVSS
VL: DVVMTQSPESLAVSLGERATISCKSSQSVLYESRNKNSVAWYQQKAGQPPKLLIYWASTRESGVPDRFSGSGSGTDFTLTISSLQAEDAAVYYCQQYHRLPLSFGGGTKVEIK

Variants are written as CDR1, CDR2 and CDR3 of the heavy chain (limits as in the source). Parent: GFTLNSYGIS, VIYSDGRRTFYGDSVK, GRAAGTFDS. The read-out is the apparent dissociation constant on a log10 scale (nM): the lower, the stronger. Averages over replicates are reported, and they cover detected replicates only. "n.d." means that the variant was in the library but no mating with the target was seen in that replicate; the authors take this as a sign of poor binding, and no number exists. Three control strains display no target. For library AAYL49, 15% of the pairings with them gave a signal, with a median of 4.06 and one signal in twenty below 2.83, so weak values seen in few replicates may be background. For each scFv, signals with the empty controls are counted beside the result, with their mean in brackets.

log10 Kd (nM) by replicate	mean, log10 nM	control signals	CDR-H1	CDR-H2	CDR-H3
n.d. / 2.46 / n.d.	2.46	0/9	GFTLNSYGIS	VIYSYGRRTFYGDGVK	QRAAGTFDS
4.43 / n.d. / n.d.	4.43	1/9 (4.03)	GCTLVSYGIS	MIYSDGRRTFYGDSVK	GRAAGTFDS
n.d. / n.d. / n.d.	n.d.	0/9	GFTLNSYGIS	VIYSDGRRTFYGDSVK	QRSAGTYDS
n.d. / 3.78 / n.d.	3.78	0/9	GFTLNSYGIS	VIYSDGRGTFYGDSIK	RRAAGTFDS
n.d. / 3.69 / 2.55	3.12	2/9 (3.76)	GFTLNSYEIS	VIYKDGRRTFYGDSVK	GRAAGTFDS
n.d. / n.d. / n.d.	n.d.	0/9	WFTLNSYGLS	VIYSDGRRTSYGDSVK	GRAAGTFDS
n.d. / n.d. / n.d.	n.d.	0/9	GFTLNSYGIS	VLYSDGRRTFYGDSVK	GARAGTFDS
3.36 / 4.16 / n.d.	3.76	0/9	GFTINSYGIS	VIYSDGRRTFYYDSVK	SRAAGTFDS
n.d. / 2.58 / 2.42	2.50	1/9 (2.67)	GFTDNSYGIS	VIYSDGRRTFYGDSVK	GRAAGTTDS
n.d. / n.d. / n.d.	n.d.	0/9	GFTLNSYGIS	VIYSAGRRTFYGDEVK	GRAAGTFDS
3.44 / 3.95 / 2.90	3.43	2/9 (3.47)	GFTLNSYGIS	VIYSDGRRTFYGDSVK	GEAAETFDS
n.d. / n.d. / n.d.	n.d.	0/9	GFVLNSHGIS	VIYSDGRRTFYGDSVK	CRAAGTFDS
n.d. / n.d. / n.d.	n.d.	2/9 (4.14)	GFTLCSYGIS	RIYSDGRRTFYGDSVK	GRARGTFDS
n.d. / n.d. / n.d.	n.d.	0/9	SFTLWSYGIS	VIYSAGRRTFYGDSVK	GRAAGTFDS
2.57 / 3.34 / 2.69	2.87	0/9	GFTLNSYGIS	VIYSDGRRTFYGDSVG	GRAAGTEDS
n.d. / n.d. / n.d.	n.d.	1/9 (3.53)	GFTLNSYGIS	VIYSDYRRTFYGDSVK	IRAHGTFDS
5.15 / n.d. / n.d.	5.15	3/9 (3.20)	GFTLNVYGIS	VIYSDGCRTFYGDSVK	QRAAGTFDS
4.02 / 2.84 / 3.34	3.40	5/9 (4.49)	GFTLNSYGIS	VIYGDGERTFYGDSVK	GRAAGTCDS
n.d. / n.d. / n.d.	n.d.	0/9	GFTLNSYVIS	VIYSDARRTFYGDSVK	GRAAGTFDS
n.d. / n.d. / n.d.	n.d.	3/9 (3.71)	GFTGNSYGIS	VIYSDLRRTFYGDSVK	IRAAGTFDS
2.45 / 2.62 / 2.66	2.58	1/9 (4.55)	GFTLNSYGIS	VIYSDGRRTFYGDSVH	GAAAGQFDS
n.d. / n.d. / n.d.	n.d.	2/9 (3.77)	GFTQNSYGIS	VIYSDGDRTFYGDSVK	GWAAGTFDS
n.d. / n.d. / n.d.	n.d.	0/9	GFTLNSYLIS	VIYSDGRRTFYGDSVK	MRASGTFDS
n.d. / 5.50 / 5.50	5.50	6/9 (4.26)	GFTQNWYGIS	VIYSDGRRTFYGDSVK	GWAAGTFDS
n.d. / n.d. / n.d.	n.d.	0/9	GFTLNSYGIS	VTYSDGRRTFQGDSVK	GRAAITFDS
n.d. / n.d. / 4.72	4.72	4/9 (4.28)	GFTLNSYSIS	SIYSDGRRTFYGDSVK	GRAAGTFDS
n.d. / n.d. / n.d.	n.d.	0/9	GFTLNSYGNS	VIYSDGRRTFYQDSVK	GRAAGTFRS
1.45 / 1.86 / 2.13	1.81	1/9 (3.60)	GFTLNSYGIS	VIYSDGRRTGYGDSVL	GRAAGTFDS
n.d. / n.d. / n.d.	n.d.	2/9 (4.30)	GFTLNSYGIS	VIYSDGRRTFYGPSVK	GRAAGEYDS
n.d. / n.d. / n.d.	n.d.	1/9 (4.03)	GFTLNSYGIM	VIYSDGRRTFYGDSVK	GRAAGTQYS
4.74 / 4.53 / n.d.	4.64	3/9 (4.53)	GFTLNSYGIS	VIASDGRRTFYMDSVK	GRCAGTFDS
n.d. / n.d. / n.d.	n.d.	1/9 (3.71)	GFTLNDPGIS	WIYSDGRRTFYGDSVK	GRAAGTFDS
n.d. / 3.47 / n.d.	3.47	0/9	GFTLNSYRIS	VIYSDGRRTFYGDSVK	GRFAGRFDS
n.d. / n.d. / n.d.	n.d.	1/9 (4.39)	GFTLNSYGIS	VIVSKGRRFFYGDSVK	GRAAGTFDS
n.d. / n.d. / n.d.	n.d.	0/9	GFTLNSYGIS	VIYSDGRRVFYGDSVK	GRAAGTDWS
n.d. / 3.09 / 4.21	3.65	2/9 (4.05)	GFTLNSCGIS	VIYSDGRRTFFGDSVK	GRAAGTFDA
3.58 / 5.16 / 4.71	4.48	4/9 (3.96)	GFTLNKYGIS	DIYSDGRRTFYGDSVK	GRAAGTFDS
n.d. / n.d. / n.d.	n.d.	0/9	WFTLNSYGIS	VIYSMGRRTFYGDSVK	GTAAGTFDS
n.d. / n.d. / n.d.	n.d.	2/9 (3.17)	HFHLNSYGIS	VIYSDGRRTFYWDSVK	GRAAGTFDS
n.d. / n.d. / 3.79	3.79	1/9 (3.37)	GFTLNSYGIS	VIYSDWRRTFYGDSVK	GRSAGTFDS
n.d. / n.d. / 2.63	2.63	0/9	GFTLNSYWIS	TIYSDGRRTFYGDSVK	GRAAGTFVS
n.d. / 3.53 / n.d.	3.53	5/9 (3.65)	GFTLNSYGIK	VIYSDSRRTFYGDSVK	GRAAGTGDS
n.d. / n.d. / n.d.	n.d.	0/9	GFTLNSYGKS	VIYSDGRRTFYGDSVK	GGAAMTFDS
2.90 / 2.53 / 2.92	2.78	3/9 (3.65)	GFTLNSYGIS	VIYSDGRRTFYGDSVK	GHAAGWFDS
n.d. / n.d. / n.d.	n.d.	0/9	GGTLVSYGIS	VPYSDGRRTFYGDSVK	GRAAGTFDS
n.d. / n.d. / n.d.	n.d.	0/9	GFVLNSYGIS	VIYIDGRRTSYGDSVK	GRAAGTFDS
n.d. / n.d. / n.d.	n.d.	4/9 (4.28)	GFTLNSYGIS	VIYSMGRRTFYGCSVK	GRAAHTFDS
n.d. / 2.41 / n.d.	2.41	0/9	GATLNSYGIS	VIYSDGRRTFYYDSVK	GRAAGTFDS
6.23 / 3.75 / n.d.	4.99	2/9 (3.88)	GFTLNSYWIV	VIYSDGRYTFYGDSVK	GRAAGTFDS
n.d. / 4.29 / n.d.	4.29	2/9 (4.23)	GFTLNSYEIS	NIYSDGRRTFYGDTVK	GRAAGTFDS
n.d. / n.d. / n.d.	n.d.	1/9 (2.81)	GFGLNSYGIS	VIYSWGRRTFYGDSVK	GRAAGTFDS
3.78 / n.d. / n.d.	3.78	3/9 (3.67)	GFTLNSYGIS	QIYSTGRRMFYGDSVK	GRAAGTFDS

The first 7 variants above that were never detected:

{"CDR-H1": "GFTLNSYGIS", "CDR-H2": "VIYSDGRRTFYGDSVK", "CDR-H3": "QRSAGTYDS", "log10 Kd (nM) by replicate": "n.d. / n.d. / n.d.", "mean, log10 nM": "n.d.", "control signals": "0/9"}
{"CDR-H1": "WFTLNSYGLS", "CDR-H2": "VIYSDGRRTSYGDSVK", "CDR-H3": "GRAAGTFDS", "log10 Kd (nM) by replicate": "n.d. / n.d. / n.d.", "mean, log10 nM": "n.d.", "control signals": "0/9"}
{"CDR-H1": "GFTLNSYGIS", "CDR-H2": "VLYSDGRRTFYGDSVK", "CDR-H3": "GARAGTFDS", "log10 Kd (nM) by replicate": "n.d. / n.d. / n.d.", "mean, log10 nM": "n.d.", "control signals": "0/9"}
{"CDR-H1": "GFTLNSYGIS", "CDR-H2": "VIYSAGRRTFYGDEVK", "CDR-H3": "GRAAGTFDS", "log10 Kd (nM) by replicate": "n.d. / n.d. / n.d.", "mean, log10 nM": "n.d.", "control signals": "0/9"}
{"CDR-H1": "GFVLNSHGIS", "CDR-H2": "VIYSDGRRTFYGDSVK", "CDR-H3": "CRAAGTFDS", "log10 Kd (nM) by replicate": "n.d. / n.d. / n.d.", "mean, log10 nM": "n.d.", "control signals": "0/9"}
{"CDR-H1": "GFTLCSYGIS", "CDR-H2": "RIYSDGRRTFYGDSVK", "CDR-H3": "GRARGTFDS", "log10 Kd (nM) by replicate": "n.d. / n.d. / n.d.", "mean, log10 nM": "n.d.", "control signals": "2/9 (4.14)"}
{"CDR-H1": "SFTLWSYGIS", "CDR-H2": "VIYSAGRRTFYGDSVK", "CDR-H3": "GRAAGTFDS", "log10 Kd (nM) by replicate": "n.d. / n.d. / n.d.", "mean, log10 nM": "n.d.", "control signals": "0/9"}